For assay [1], the target named is anti-ADDL antibody 19.3. Kind of assay: competitive ELISA: Aβ1-40 monomer titrated in solution to remove 19.3 (2 nM) from a plate coated with Aβ oligomers (50 pmol/well) (FIG. 5B).
The target of assay [2] is anti-ADDL antibody 19.3. The experiment in a line: competitive ELISA: Aβ oligomers titrated in solution to compete for 19.3 (4 nM) on a plate coated with Aβ1-40 monomer (100 pmol/well) (FIG. 5B).

Substance Aβ1-40 monomer (peptide) registered an EC50 in the assay with anti-ADDL antibody 19.3 [1] of 5500 nM.
“amyloid β-derived diffusible ligands (ADDLs), oligomers of Aβ1-42 (peptide)” registered an EC50 in the assay with anti-ADDL antibody 19.3 [2] of 8.7 nM.

For the origin of these results see patent publication US20150260731A1.
